The test concerns Corynebacterium glutamicum KFCC-10680. Briefly: Viability after NTG treatment (mutagenesis). The settings on record: 200 mg/L of NTG for 20 minutes, smeared onto minimal medium. The procedure: The induction of the mutant strain will be described in more detail, as follows. The parent strain was activated through culturing in an activation medium (Note 2) for 16 hours. The activated strain was cultured in a seed medium (Note 3), which was sterilized at 121° C. for 5 minutes, for 14 hours. 5 ml of the seed culture were washed with 100 mM citric buffer, treated with 200 mg/L of NTG for 20 minutes, and washed with 100 mM phosphate buffer. The NTG-treated strain was then smeared onto the minimal medium (Note 1), and the viability thereof was evaluated. […] In order to obtain a mutant strain resistant to all of alpha-aminobutyric acid, canavanine and arginine hydroxamate, the NTG-treated strain was smeared onto the minimal medium supplemented with canavanine, arginine hydroxamate and alpha-aminobutyric acid at 500 mg/L, 500 mg/L and 10 g/L, respectively, and cultured at 30° C. for 5 days. The emerged colonies were cultured in an Erlenmeyer flask containing an arginine production medium (Note 4) for 72 hours. A mutant strain, which produces arginine and is resistant to canavanine, arginine hydroxamate and alpha-aminobutyric acid, was selected and designated as Corynebacterium glutamicum CJR0500.

This is a selection: effects in other tests are not listed, and their absence says nothing.

For the substance N-methyl-N-nitro-N-nitrosoguanidine, the death rate worked out at 85%.
